Fold change permeability data for one molecule are collected here from PubChem BioAssay AID1963498 (Burek Lab, Department of Anaesthesiology, Intensive Care, …, 2024).

The entries are a selection whose mix differs from that of the whole data set. The source made the active and inactive calls. Cut-off read from the data, not from the text of the source: active = fold change permeability below about 0.7 or above about 1.3; inactive = in between.

A short description of this experiment: modulators of brain endothelial barrier permeability, primary screen, cell-based, FITC-avidin fluorescence, HTS (AID 1963498). Note: test concentration not given here. Particulars: actives lie on both sides.
For `CC(C)N1CCC(N(C(=O)Cc2ccccc2)c2ccc(Cl)cc2)CC1`, the fold change permeability was active: 1.9.
